Literature values, collected in patent US20100078098A1, “GAS GENERATING COMPOSITION FOR INFLATOR CONTAINING MELAMINE CYANURATE” (published 2010).

| Compound | LD50 (oral-rat) |
| --- | --- |
| [N-]=[N+]=[N-] | 27 mg/kg |
| melamine cyanurate | 2020 mg/kg |
